# The entries are a selection whose mix differs from that of the whole data set. Records with an inconclusive call do not appear. Activity calls are given as the source filed them. The call rests on the fitted dose curve; in most records, active means well fitted inhibition curve with a large enough effect; inconclusive means small, poorly fitted or top-dose-only effect, or another doubt; inactive means no such curve, though single readings can be large or run the other way.
# Target: 4'-phosphopantetheinyl transferase ffp (Bacillus subtilis) (UniProt Q9F4F7)
# Assay: qHTS Assay for Inhibitors of Bacillus subtilis Sfp phosphopantetheinyl transferase (PPTase);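 further: the enzyme is Sfp with the accession as filed and its product quenches rhodamine fluorescence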
# Details: Biochemical Sfp PPTase activity
# Potency means the concentration at half of the fitted maximal effect.
row,SMILES,Potency
1,Clc1n[nH]nc1-c1nn[nH][15n]1,active: 56.2 µM
2,CC(C)(C)C(=O)NC(Sc1ncccn1)C(Cl)(Cl)Cl (centres undefined),active: 8.91 µM
3,CS(=O)(=O)c1cc([N+](=O)[O-])c2no[n+]([O-])c2c1,active: 3.16 µM
4,O=[N+]([O-])c1cc([N+](=O)[O-])c(-c2ccn[nH]2)s1,active: 70.8 µM
5,Cc1cc(SC(NC=O)C(Cl)(Cl)Cl)ncn1 (centres undefined),active: 2 µM
6,Cc1cc(SC(NC(=O)c2ccccc2)C(Cl)(Cl)Cl)nc(C(C)C)n1 (centres undefined),active: 28.2 µM
7,CC(C)(C)C(=O)NC(Sc1ccncn1)C(Cl)(Cl)Cl (centres undefined),active: 7.94 µM
8,CCc1nc2c(n1)c1c(non1O)c1c2no[n+]1[O-],active: 56.2 µM
9,COc1ccc(C2=NCC(CBr)S2)cc1 (centres undefined),active: 50.1 µM
10,Cc1c2non([O-])c-2c(C)[n+](=O)[n+]1[O-],active: 3.98 µM
11,O=C(NC(Sc1ccncn1)C(Cl)(Cl)Cl)c1ccccc1 (centres undefined),active: 11.2 µM
12,Nc1cccc2ccc([As](=O)(O)O)cc12,active: 79.4 µM
13,Cc1cc(SC(NC(=O)c2ccc(F)cc2)C(Cl)(Cl)Cl)ncn1 (centres undefined),active: 8.91 µM
14,CCOc1ccc(C2=NCC(CBr)S2)cc1 (centres undefined),active: 17.8 µM

# — PubChem BioAssay AID1490 (National Center for Advancing Translational Sciences (NCATS), 2009)
